From patent US9920039B2, “1,2,4-Oxadiazol compounds active against gram-positive pathogens” (UNIVERSITÀ DEGLI STUDI DI MILANO—BICOCCA, priority 2013, dated 2018)

Test system: HepG2 human hepatoma cell line
Conditions: 48 h, 100 micrograms/mL

CC(=O)NC[C@H]1CN(c2ccc(N3CCOCC3)c(F)c2)C(=O)O1 [Linezolid, reference compound] was tested, and the mortality was 20%.
